Values quoted from earlier work as cited in patent US8410049B2, “Methods and kits for preventing hypoglycemia” (Cebix, priority 2009, dated 2013).

System: type 2 diabetes patients
Settings: type 2 diabetes patients starting insulin therapy, over 4-8 months; cited from earlier work

insulin
Weight gain: 2 to 4 kg
